# Source: published antibiotic growth screens (doi:10.1038/s41589-023-01349-8)
# The other results are listed elsewhere or left out.
# System: A. baumannii ATCC 17978
# Assay: relative growth (fraction of control); higher = less inhibition
# Settings: 50 µM
row,SMILES,relative growth
1,COc1ccccc1S(=O)(=O)N[C@H]1C=C[C@H](CC(=O)N2CCOCC2)O[C@H]1CO,1.14
2,CC1(C)[C@@H](O)CC[C@]2(C)C3CC=C4[C@@H]5C[C@@]6(C)C[C@H](OC6=O)[C@]5(C)CC[C@@]4(C)[C@]3(C)CC[C@@H]12 (some centres undefined),0.979
3,C[C@H]1CN([C@@H](C)CO)C(=O)c2cc(-c3cccc(C(=O)N(C)C)c3)cnc2O[C@@H]1CN(C)C(=O)Cc1ccccn1,1.04
4,COc1ccc(-c2cc(=O)c3c(O)cc(O[C@@H]4O[C@H](CO[C@H]5O[C@H](C)[C@@H](O)[C@H](O)[C@@H]5O)[C@@H](O)[C@H](O)[C@H]4O)cc3o2)cc1O,0.985
5,Cc1ccccc1S(=O)(=O)N1C[C@@H](O)COC[C@H]2O[C@H](CC(=O)N3CCC(Cc4ccccc4)CC3)CC[C@@H]21,0.669
6,C[C@H](O)C#Cc1ccc2c(c1)O[C@H](CN(C)C(=O)c1ccncc1)[C@H](C)CN([C@@H](C)CO)S2(=O)=O,1.1
7,O=C(C[C@H]1C=C[C@H](NC(=O)CN2CCOCC2)[C@@H](CO)O1)NCCc1ccncc1,0.931
8,CC[C@@H](O)C#CCN1CCN(C)CC1,1.1
9,CCOC(=O)Cc1c(C)[nH]c(=O)[nH]c1=O,0.885
10,CCCc1nc(C(C)(C)O)c(C(=O)O)n1Cc1ccc(-c2ccccc2-c2nn[nH]n2)cc1,1.01
11,O=C(c1ccc(F)cc1)C1CCN(CCn2c(=O)[nH]c3ccccc3c2=O)CC1,0.881
12,C[C@]12CC[C@H](O)CC1=CC[C@@H]1C2CC[C@]2(C)C(c3cccnc3)=CCC12 (some centres undefined),1.04
13,Cc1ccc(C(=O)C(C)CN2CCCCC2)cc1.Cl (centres undefined),0.914
14,Cc1c(/C=N/c2ccc(C(C)C)cc2)sc2ccccc12,1
15,Nc1ccc(-n2cccc2)cc1Cl,0.948
16,Oc1cc2c(cc1O)C1c3ccc(O)c(O)c3OCC1(O)C2 (centres undefined),1.31
17,C[C@@H](SC(=S)N1CCOCC1)C(=O)O,0.794
18,COc1ccc(-c2cc(=O)c3c(O)c(OC)c(OC)c(OC)c3o2)cc1,1
19,CCCC#Cc1ccc2c(c1)O[C@@H](CN(C)Cc1ccc3c(c1)OCO3)[C@@H](C)CN([C@H](C)CO)S2(=O)=O,0.965
20,COC[C@H]1CN(C)N=C(C2CC2)O1,0.798
21,CCN(CC)C(=O)c1ccc(O)c(OC)c1,0.943
22,C[C@@H](NC(=O)C[C@@H]1C=C[C@@H](NC(=O)CN2CCOCC2)[C@H](CO)O1)c1ccccc1,1.06
23,[N-]=[N+]=Nc1ccccc1[C@H]1OC(c2ccc(OCCCO)cc2)=N[C@@]1(Cc1ccccc1)C(=O)NC[C@@H](O)CO,0.848
24,COc1ccc(S(=O)(=O)N(C)C[C@@H]2Oc3c(NC(=O)Nc4cccc5ccccc45)cccc3C(=O)N([C@@H](C)CO)C[C@H]2C)cc1OC,1.09
25,Cc1ccc(S(=O)(=O)N(C)C[C@@H]2Oc3ncc(C#CC4(O)CCCC4)cc3C(=O)N([C@H](C)CO)C[C@@H]2C)cc1,0.826
26,CCN(CC)CCCC(C)Nc1c2ccc(Cl)cc2nc2ccc(OC)cc12.Cl.Cl (centres undefined),1.03
27,O=C(C[C@@H]1CC[C@@H]2[C@H](COC[C@H](O)CN2S(=O)(=O)c2ccccc2)O1)N[C@@H]1CCN(Cc2ccccc2)C1,1.02

row,SMILES,relative growth
1,NNC(=O)CNc1ccc2c(c1)OCO2,1.03
2,Cc1ccc(-c2cnc3c(c2)C(=O)N([C@H](C)CO)C[C@@H](C)[C@@H](CN(C)C(=O)Cc2cccnc2)O3)cc1,1.14
3,O=C1NCCC[C@@H]1C(=O)N1CCCCC1,1.01
4,CNC(=O)c1ccc(N)cc1,0.943
5,NC(=O)NCc1ccccn1,0.923
6,Cc1cc2nc3c(=O)[nH]c(=O)nc-3n(C[C@H](O)[C@H](O)[C@H](O)CO)c2cc1C,0.867
7,O=C(CN1CCOCC1)NCC[C@H]1CC[C@H](NS(=O)(=O)c2ccc(F)cc2)[C@@H](CO)O1,1.05
8,C[C@H]1CN([C@@H](C)CO)C(=O)c2cc(C#Cc3ccccc3F)cnc2O[C@@H]1CN(C)C(=O)Cc1cccnc1,0.896
9,Cn1cnc(S(=O)(=O)N2C[C@@H](O)COC[C@H]3O[C@H](CC(=O)NC4CCC4)CC[C@@H]32)c1,1.11
10,COc1ccc(S(=O)(=O)N[C@H]2CC[C@@H](CC(=O)N3CCN(c4ccccc4)CC3)O[C@@H]2CO)cc1,0.913
11,COc1ccc(S(=O)(=O)N2C[C@H](O)COC[C@@H]3O[C@@H](CC(=O)NCCN4CCCCC4)CC[C@H]32)cc1,1.18
12,Cc1cc(C)n2nc(SCC(=O)O)nc2n1,1.08
13,COc1cccc(NC(=O)N[C@@H]2CC[C@H](CC(=O)N3CCOCC3)O[C@@H]2CO)c1,1.04
14,C[C@H]1CN([C@@H](C)CO)S(=O)(=O)c2ccc(C#CC3(O)CCCC3)cc2O[C@@H]1CN(C)C(=O)Cc1cccnc1,1.12
15,C=CCC[C@@H](Cc1ccc(F)cc1)C(=O)OC[C@@H]1CCCN1C(=O)[C@H](CC=C)CC(=O)N(CCO)Cc1ccccc1,1.11
16,C[C@H](CO)N1C[C@H](C)[C@@H](CN(C)Cc2ccccc2)Oc2cc(C#Cc3ccccn3)ccc2S1(=O)=O,1.27
17,O=C(NO)c1cccc(C(=O)N/N=C/[C@H](O)[C@@H](O)[C@H](O[C@@H]2O[C@H](CO)[C@H](O)[C@H](O)[C@H]2O)[C@H](O)CO)c1,0.934
18,CN(C)CCOC(c1ccccc1)c1ccccc1.Cn1c(=O)c2[nH]c(Cl)nc2n(C)c1=O,0.893
19,O=C(C[C@@H]1C=C[C@@H](NS(=O)(=O)c2ccc(F)cc2)[C@H](CO)O1)NCCN1CCCCC1,0.961
20,COc1cc(C)c(C(=O)Oc2cc(C)c(C(=O)O)c(O)c2C)c(OC)c1C,0.905
21,COCC1=C(C(=O)OC(C)OC(=O)OC(C)C)N2C(=O)[C@@H](NC(=O)/C(=N/OC)c3csc(N)n3)[C@H]2SC1 (some centres undefined),1.27
22,Cc1cc(O)c2c(c1)C(=O)c1c(c(O)cc(O)c1-c1c(O)cc(O)c3c1C(=O)c1cc(C)cc(O)c1C3=O)C2=O,0.955
23,Cc1ccc(OCCN)c(Br)c1,0.8
24,Clc1ccc2c(c1)CCc1cccnc1C2=C1CCNCC1,0.786
25,Cl.O=C(O)/C=C/c1ccc(Cn2ccnc2)cc1,1.03
26,CC(C)NNC(=O)c1ccncc1.O=P(O)(O)O,0.896
27,Cc1csc2sc(COC(=O)Nc3ccccc3)c(C)c12,1.02
